Yeast mating assay 1: variants of the scFv Ab-14

Values reported by Engelhart et al. 2022, doi:10.1038/s41597-022-01779-4 (FLAb copy).

Target peptide (SARS-CoV-2 spike, HR2 region): PDVDLGDISGINAS

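AAYL50 was designed without a model: most single CDR substitutions and a random sample of double and triple ones. The scFvs were displayed on barcoded MATa yeast, the peptide on MATalpha yeast. Binding brings cells together so that they mate, and sequencing counts the barcode pairs among the diploids. Scores were corrected for input abundance and mapped to Kd with protein pairs of known affinity run in the same pool. The assay was run in three technical replicates.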

The variants keep the heavy chain, the linker and the frameworks of Ab-14 (scFv order VH, a 15-residue (Gly4Ser)3 linker, VL).
VH: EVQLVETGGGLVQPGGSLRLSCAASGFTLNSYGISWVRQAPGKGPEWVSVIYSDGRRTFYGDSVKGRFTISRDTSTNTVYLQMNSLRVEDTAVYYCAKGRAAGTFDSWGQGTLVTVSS
VL: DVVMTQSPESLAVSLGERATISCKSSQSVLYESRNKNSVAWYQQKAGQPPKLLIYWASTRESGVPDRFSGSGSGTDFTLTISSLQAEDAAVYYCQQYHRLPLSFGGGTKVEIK

Changes read parent residue, position, new residue, counted from the first residue of the VL shown.
This list gathers variants with a substitution at R60 (VL, numbered from residue 1).
Values are apparent Kd, the geometric mean of the replicates that gave a signal; lower means stronger binding.
Where no diploid with the target was found in any replicate, the entry reads "not detected": below detection, most likely a poor binder, though not proof of it.
Three control strains display no target. For library AAYL50, 18% of the pairings with them gave a signal, with a median of 15 µM and one signal in twenty below 970 nM, so weak values seen in few replicates may be background.

| changes | Kd (apparent) | seen in |
|---|---|---|
| W56D/R60P/L102I | 3.6 nM | 3/3 |
| V29Q/E32S/R60Y | not detected | 0/3 |
| R60K/L100A | 610 nM | 3/3 |
| S33W/R60L/E61K | 13 µM | 2/3 |
| Q27C/R60S/L100F | 3.0 µM | 1/3 |
| S26A/R60L/S103P | 110 µM | 1/3 |
| S25Y/K36F/R60G | not detected | 0/3 |
| K24R/R60Y/L102E | not detected | 0/3 |
| S26Q/N35H/R60H | not detected | 0/3 |
| T59E/R60Y | 540 nM | 3/3 |
| S25I/A57W/R60C | not detected | 0/3 |
| Q27Y/K36M/R60F | not detected | 0/3 |
| R60N | 120 µM | 3/3 |
| R60L | 5.7 µM | 3/3 |
| K24C/R60Q/L102E | 42 µM | 1/3 |
| K36L/R60Q | 13 nM | 3/3 |
| R34C/A40T/R60F | 19 µM | 1/3 |
| K24W/R60S | not detected | 0/3 |
| A57D/R60V/S103P | 3.6 µM | 3/3 |
| R60G/Q95S | not detected | 0/3 |
| V39T/R60I/L102T | not detected | 0/3 |
| S25M/R60E/L100G | not detected | 0/3 |
| S33M/W56Q/R60A | 50 nM | 3/3 |
| S33T/N37M/R60P | not detected | 0/3 |
| R34E/R60K/L100E | 18 µM | 1/3 |
| A57K/R60D/E61I | not detected | 0/3 |
| S26K/R60P/Y97T | not detected | 0/3 |
| S28A/R60G/Y97T | not detected | 0/3 |
| R60Q/E61A/Y97G | 9.3 µM | 3/3 |
| N35S/A40W/R60G | not detected | 0/3 |
| S26N/T59C/R60W | not detected | 0/3 |
| N35Y/A57L/R60S | 140 µM | 2/3 |
| N37W/R60P/R99H | 56 nM | 3/3 |
| Y31G/R60S/E61H | 1.3 µM | 3/3 |
| R60C/R99I | 30 µM | 2/3 |
| S33G/A40E/R60T | not detected | 0/3 |
| S25V/R60Q/Q96R | 2.3 µM | 1/3 |
| S25C/T59A/R60L | 26 nM | 3/3 |
| N37V/R60C/S103N | not detected | 0/3 |
| K24C/A57Q/R60V | 1.5 µM | 1/3 |
| R34H/N35E/R60P | not detected | 0/3 |
| W56N/S58C/R60E | 58 nM | 1/3 |
| A40I/S58D/R60K | 560 µM | 1/3 |
| T59K/R60T/S62W | 900 nM | 1/3 |
| W56M/R60C/S62P | not detected | 0/3 |
| R60F/E61N/Y97R | 3.5 µM | 1/3 |
| R34I/A57I/R60C | 64 µM | 2/3 |
| N37Y/S38E/R60E | not detected | 0/3 |
| R60N/H98N/R99T | 30 µM | 1/3 |
| L30N/R60E/Q96F | not detected | 0/3 |
| S26I/V39A/R60A | not detected | 0/3 |

Repeated from above, the 7 best binders with a signal in all replicates:

| changes | Kd (apparent) | seen in |
|---|---|---|
| W56D/R60P/L102I | 3.6 nM | 3/3 |
| K36L/R60Q | 13 nM | 3/3 |
| S25C/T59A/R60L | 26 nM | 3/3 |
| S33M/W56Q/R60A | 50 nM | 3/3 |
| N37W/R60P/R99H | 56 nM | 3/3 |
| T59E/R60Y | 540 nM | 3/3 |
| R60K/L100A | 610 nM | 3/3 |